Data published in patent publication US20230382951A1, “BRAIN PENETRATING PEPTIDES” (BOARD OF REGENTS, THE UNIVERSITY OF TEXAS SYSTEM, priority 2020, published 2023).
Read-outs that look alike come from different tables or passages of the source.

Columns and labels:
[1] = Biodistribution of FAM-labeled peptides in vivo (IVIS imaging); parameters: species or system Balb/c mice; conditions: FAM-labeled free peptide, i.v., 30 min, P<0.05
hCMEC/D3 cells [2] = format: in vitro ADME, human
[3] = Diffusion of FAM-peptides through Matrigel embedded in multi-channel chamber slide; format: physicochemical; conditions: FAM-labeled peptides, Matrigel microfluidic channel, 12 h
Procedure: Diffusion of selected peptides through Matrigel embedded in a multi-channel chamber slide. For diffusion through the microchannel p-Slide 0.4 VI chamber (ibidi), each channel was loaded with 30 μL Matrigel and was allowed to gel in a cold room following the manufacturer's recommendations. After gelation, the basal medium was added to hydrate the gel for 10 min. 60 μL of 100 μM of each peptide was added to the inlet reservoir of the chamber, and 60 μL of the basal medium was added to the other reservoir to create sink conditions. Olympus IX83 fluorescence microscope was set-up to image migration of fluorescent peptides in the Matrigel filled channel by recording fluorescent images every 30 min up to 12 h with Hamamatsu ORCA-flash 4.0 camera and 4*UPLSAPO objective using the GFP filter. […]
Next, diffusive transport of the peptides was imaged in a microfluidic chamber slide with embedded Matrigel to exclude possible interactions between the peptides and the polycarbonate membrane insert from the transwell. […] From the time-lapse imaging, the mean diffusivities of the peptides were calculated with a custom Matlab script (Table A) based on the solution to Fick's Second Law^91, presented as equation (1)^92 shown below.
[formula] • where C is the fluorescence intensity of the FAM-labeled peptides, x is the penetration distance at a given time t, and Deff is the effective diffusivity. […]

[4] = Brain distribution of M13 phage conjugated with biotinylated peptides in vivo; parameters: species or system Balb/c mice; conditions: M13 phage conjugated with biotinylated peptide, i.v., 30 min
hCMEC/D3 cells [5] = assay: Transcytosis of CX7C peptide presenting M13 phage against hCMEC/D3 cells (transwell); format: in vitro ADME, human; conditions: for transcytosis efficiency (ratio of output to input phage): peptide-presenting M13 phage, 37° C.; for fold difference in transcytosis efficiency, 37° C. versus 4° C.: M13 phage clones

## TFFYGGSRGKRNNFKTEEY [Angiopep-2]
[1]
  brain distribution (total radiant efficiency) vs saline group: effective brain distribution
hCMEC/D3 cells [2]; FAM-labeled peptides, 4° C. versus 37° C.
  reduction in transcytosis efficiency at 4° C.: 1.4 fold
[3]
  diffusivity (mean, effective): 1.17×10^−8 cm^2/s
[4]
  brain capillary/serum ratio: 1.09 µL/g
  brain parenchyma/serum ratio: 0.54 µL/g

## THRPPMWSPVWP [PC-1]
hCMEC/D3 cells [5]
  transcytosis efficiency (ratio of output to input phage): 5.34×10^−4

## NWMINKE [Pep-8]
hCMEC/D3 cells [5]
  fold difference in transcytosis efficiency, 37° C. versus 4° C.: 402 fold

## nona-arginine [Pep R9]
hCMEC/D3 cells [2]
  reduction in transcytosis efficiency at 4° C.: ~9 fold

## CRTIGPSVC [PC-2]
hCMEC/D3 cells [5]
  transcytosis efficiency (ratio of output to input phage): 2.42×10^−4

## LWRPAAD [Pep-9]
hCMEC/D3 cells [5]
  fold difference in transcytosis efficiency, 37° C. versus 4° C.: 169 fold
hCMEC/D3 cells [5]; M13 phage, in vitro
  transcytosis efficiency relative to Pep-3 clone: about 10 fold
